The results in this text go back to paper PMC10229121 (2023).

By EC50 is commonly meant the midpoint of the concentration-response curve. A low value points to greater potency.

The target in assay [1] is H3K4me3K9acK14acK18ac nucleosome (homotypic, PTM-defined) (UniProt P68431 1-136; P62805 1-103; P04908 1-130; O60814 1-126, trimethyl-lysine at K4; acetyl-lysine at K9, K14, K18).
Assay [2] addresses H3K4me3 nucleosome (homotypic, PTM-defined) (UniProt P68431 1-136; P62805 1-103; P04908 1-130; O60814 1-126, trimethyl-lysine at K4).

B1: GST-MLL5 PHD (residues 100-180) (domain or fragment)
chain: TSSATTISTSEDGSYGTDVTRCICGFTHDDGYMICCDKCSVWQHIDCMGIDRQHIPDTYLCERCQPRNLDKERAVLLQRRK
In assay [1], B1 showed an EC50 of 11.7 nM.

B2: GST-KDM7A PHD (residues 1-100) (domain or fragment)
chain: MAGAAAAVAAGAAAGAAAAAVSVAAPGRASAPPPPPPVYCVCRQPYDVNRFMIECDICKDWFHGSCVGVEEHHAVDIDLYHCPNCAVLHGSSLMKKRRNW
B2: the EC50 came out at 5.3 nM in assay [1] and 16.3 nM in assay [2].

B3: GST-DIDO1 PHD (residues 250-340) (domain or fragment)
chain: EPGDLGRPKPECEGYDPNALYCICRQPHNNRFMICCDRCEEWFHGDCVGISEARGRLLERNGEDYICPNCTILQVQDETHSETADQQEAKW
In the case of B3, the figures for the EC50 in assay [1] and in assay [2] were 1.2 nM and 4 nM, respectively.
